Test system: CD8^+T cells from OT-I TCR transgenic mice
Details: OVAp, spleen dendritic cells, TGF-β1
Protocol: The culture medium used for dendritic cell-T cell cultures was Iscove's modified Dulbecco medium (IMDM) (Gibco, USA) supplemented with 10% heat-inactivated FCS, 2 mM L-glutamine, 100 U/ml penicillin, 100 μg/ml streptomycin, and 5 mM β-mercaptoethanol (all Sigma, USA). […] For dendritic cell-T cell cultures, 2×10^4 dendritic cells and 1×10^5 T cells were cultured in a volume of 200 μl (96-well plates). For irradiated APC-T cell cultures, 5×10^5 APCs and 1×10^5 T cells were cultured in a volume of 200 μl in 96-well plates (2×10^6 APCs and 0.5×10^6 T cells per well in 48-well plates). […] For the study shown in FIG. 4A, after sorting of naive CD4^+ cells (CD25^−CD44^lowCD62L^+), cells were washed twice in PBS+0.1% BSA, counted and labeled with 2 μM of CFSE (Carboxyfluorescein diacetate, succinimidyl ester) (Molecular Probes, USA) at a concentration of 5−10×10^6 cells per ml in PBS-0.1% BSA.

For `CC1=C(/C=C/C(C)=C/C=C/C(C)=C/C(=O)O)C(C)(C)CCC1` [RA, All-trans retinoic acid], which “synergistic effect on TGF-b-dependent Foxp3^+ T cell differentiation in CD8^+T cells” value is on record?
The value was “also apparent with CD8^+T cells”.
